The record followed here is patent US10508115B2, “Toll-like receptor 7 (TLR7) agonists having heteroatom-linked aromatic moieties, conjugates thereof, and methods and uses therefor” (BRISTOL-MYERS SQUIBB COMPANY, priority 2017, dated 2019).

By UniProt entry, the sequences of proteins in these tests, tags left out. Residues count along the entry.
UniProt Q9NYK1, 27-1049 limits assumed: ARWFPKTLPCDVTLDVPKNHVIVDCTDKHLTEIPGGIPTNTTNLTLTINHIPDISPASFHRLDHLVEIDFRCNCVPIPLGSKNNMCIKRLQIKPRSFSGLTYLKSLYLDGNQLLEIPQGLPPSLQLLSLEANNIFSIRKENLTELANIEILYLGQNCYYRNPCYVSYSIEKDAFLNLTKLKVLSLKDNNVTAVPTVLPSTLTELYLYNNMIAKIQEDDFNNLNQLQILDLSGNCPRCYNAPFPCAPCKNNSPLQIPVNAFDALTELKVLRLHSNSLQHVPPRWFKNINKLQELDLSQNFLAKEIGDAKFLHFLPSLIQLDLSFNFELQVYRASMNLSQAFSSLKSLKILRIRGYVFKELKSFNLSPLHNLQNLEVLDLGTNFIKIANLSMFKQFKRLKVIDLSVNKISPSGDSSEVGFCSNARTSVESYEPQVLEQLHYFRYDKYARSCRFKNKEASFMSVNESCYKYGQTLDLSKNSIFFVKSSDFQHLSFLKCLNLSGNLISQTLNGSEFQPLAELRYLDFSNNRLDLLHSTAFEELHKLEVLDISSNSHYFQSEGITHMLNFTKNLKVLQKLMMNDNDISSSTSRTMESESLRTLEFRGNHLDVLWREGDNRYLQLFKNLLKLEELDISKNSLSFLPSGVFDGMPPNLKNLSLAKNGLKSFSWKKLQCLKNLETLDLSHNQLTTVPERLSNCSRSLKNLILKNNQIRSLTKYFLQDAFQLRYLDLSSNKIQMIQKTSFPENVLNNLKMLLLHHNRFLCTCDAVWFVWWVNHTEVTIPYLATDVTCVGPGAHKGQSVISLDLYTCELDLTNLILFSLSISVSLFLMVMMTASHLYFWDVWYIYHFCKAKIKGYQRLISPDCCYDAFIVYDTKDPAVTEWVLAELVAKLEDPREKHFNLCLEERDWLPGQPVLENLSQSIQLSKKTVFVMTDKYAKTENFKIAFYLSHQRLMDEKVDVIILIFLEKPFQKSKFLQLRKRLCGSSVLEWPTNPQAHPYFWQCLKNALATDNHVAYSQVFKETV

The target in test [1] is human TLR7 (Homo sapiens (Human), UniProt Q9NYK1). Briefly: HEK-Blue TLR7 reporter assay (TLR7 agonist activity). The format is cell-based. The conditions noted are these: read-out: TLR7 Agonism (EC50); HEK-Blue TLR7 cells, SEAP reporter, 18 h treatment.
Test [2] has as its system interleukin 6 (IL-6). Nature of the test: Interleukin 6 induction assay in human whole blood. The conditions noted are these: read-out: IL6 Induction (EC50), 37° C. for 20 h, AlphaLISA. A general note: Bead proximity is the source of the signal in Alpha formats.

Each structure is given as a SMILES string.

On to `CCCCOc1nc(N)c2nc(O)n(Cc3ccc(Oc4cccc(CN5CCNCC5)n4)cc3)c2n1`, for which the EC50 was determined as 8.02 nM in test [1] and 232 nM in test [2]. Turning to `CCCCOc1nc(N)c2nc(O)n(Cc3ccc(Oc4cccc(CNC5CCOCC5)n4)cc3)c2n1`, in test [2], the EC50 turned out to be 20.7 nM.

As usually defined, the EC50 is the concentration needed to bring the measured effect to its halfway point.
